Test results from paper PMC3124771 (Journal of immunology (Baltimore, Md. : 1950), 2011).

Test system: HPV specific T-cell lines
Experiment: IFN-γ cytokine capture assay after IL-2 pretreatment
Assay type: cell-based, human
Conditions: IL-2 40 U/ml overnight, average

IL-2: exogenous IL-2 (40 U/ml) added to HPV specific T cell lines
Fold increase in IFN-γ secretion after pretreatment with exogenous IL-2 (HPV specific T cell lines from RRP patients (4 cell lines)): 2 fold
Fold increase in IFN-γ secretion after pretreatment with exogenous IL-2 (HPV specific T cell lines from healthy subjects (4 cell lines)): 1 fold
